# Measurements reported in patent publication EP0490549B1, “Stabilisation of pharmaceutical compositions comprising calcitonin” (CIBA-GEIGY AG, priority 1990, dated 1995).
# Assay: Stability of aqueous hCT solutions against fibrillation or precipitation (solution remains clear on storage)
# Conditions: 0.001% acetic acid, compared overall with other acids and concentrations
structure (smiles),measurement,value
CC(=O)O [acetic acid],stabilising conditions,best case
